The text below walks through data of article PMC11269945, “HTRF-based assay for detection of mono-ADP-ribosyl hydrolyzing macrodomains and inhibitor screening” (iScience, 2024).

Sequences of proteins named here, by UniProt entry; tags and fusion partners are left off. Residues count along the entry.
UniProt P0C6X1, 1270-1437 limits assumed: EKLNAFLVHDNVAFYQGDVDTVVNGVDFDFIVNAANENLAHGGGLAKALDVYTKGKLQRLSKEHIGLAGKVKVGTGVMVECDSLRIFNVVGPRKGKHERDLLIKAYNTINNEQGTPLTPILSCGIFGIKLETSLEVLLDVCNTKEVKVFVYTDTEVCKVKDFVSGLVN

This assay deals with HCoV-229e macrodomain (Human coronavirus 229E, UniProt P0C6X1). The assay is described as follows: DeMAR HTRF deMARylation assay, wash protocol. As to conditions: read-out: IC50 HCoV-229e; wash setup, 2 h, 80 nM macrodomain, 6 nM immobilized Tb-PARP10cat. The assay is classed as biochemical. (In general: Time-resolved FRET reads energy transfer from a long-lived donor to a nearby acceptor.)

pIC50: −log10 of the molar value.

The pIC50 is −log10 of the IC50, conventionally taken in molar units. For the compound `O=C(Nc1ccccc1)Nc1ccc(C(=O)NC2c3cccc(O)c3CC2C(=O)O)cc1` (stereo not shown) [Z8539_0023], the pIC50 is < 3.18.
